Molecular target: XIAP BIR3 protein of human XIAP (residues 241-356) (Homo sapiens, UniProt P98170)
Assay: Fluorescence polarization competitive binding assay (SM7F tracer)

Sequences of proteins named here, by UniProt entry; tags and fusion partners are left off. Residues count along the entry.
UniProt P98170, 241-356 limits assumed: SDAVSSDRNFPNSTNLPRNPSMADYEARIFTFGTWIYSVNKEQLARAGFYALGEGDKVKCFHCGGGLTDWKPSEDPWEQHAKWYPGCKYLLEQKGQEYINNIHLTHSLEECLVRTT

times more potent than SMXI-56 (binding to XIAP): 5 times | times more potent than the natural Smac AVPI peptide (binding to XIAP): approximately 2 times | IC50 (read-out: IC50 value to XIAP in the competitive binding assay, new analogs of SMXI-56 (FIG. 15)): 1 µM
SMILES: Cc1ccc(NC(=O)c2cccc(CCC3=C(O)C(=O)C=C(O)C3=O)c2)cc1 [CJ-305]
